The target in this experiment is Human Polymorphonuclear Leukocyte Elastase (Homo sapiens, UniProt P08246). The experiment is described as follows: Inhibition of human polymorphonuclear leukocyte (PMN) elastase via hydrolysis of N-t-Boc-alanyl-alanyl-prolyl-alanine-p-nitroanilide (two point or "zero time" assay). It is filed as biochemical. The settings on record: 50% inhibition of the enzyme activity 2 minutes after zero time; crude human PMN extract; 0.2 mM Boc-AAPAN, pH 7.5, 410 nm. The text has this:
It is generally understood that the enzyme of interest is that enzyme against which the inhibitory activity of the fermentation broth samples are being determined and quantified (e.g., PMN elastase). Consequently, all of the remaining wells are charged with the same enzyme of interest. However, several enzymes of interest can be charged to a plurality of wells, and the wells grouped together to facilitate separate identification and assay. When this is done, separate control wells must then also be prepared to correspond to the different enzymes of interest.
The chromogenic medium is charged to all the wells at substantially the same time and the time of this addition is noted. This is the "zero time" mentioned earlier as it is from that moment that a predetermined time lapse is measured during which sufficient reaction between the fermentation broth samples and the enzyme of interest occurs to enable not only accurate screening of enzyme inhibitory activity, but also the degree of that activity. Naturally, the predetermined time lapse will differ with different enzymes and can be from about 1 minute to about 20 minutes, typically from about 2 minutes to about 10 minutes. […]
To 1.0 ml of 0.2 mM Boc-AAPAN in a cuvette, 0.01-0.1 ml of DMSO with or without inhibitor was added. […] 0.05 Milliliters of PMN extract was then added and the ΔOD/min at 410 nm was measured and recorded. […]

Chains of the proteins cited; added tags and fusions are not shown. Residues count along the entry.
UniProt P08246, 30-247 limits assumed: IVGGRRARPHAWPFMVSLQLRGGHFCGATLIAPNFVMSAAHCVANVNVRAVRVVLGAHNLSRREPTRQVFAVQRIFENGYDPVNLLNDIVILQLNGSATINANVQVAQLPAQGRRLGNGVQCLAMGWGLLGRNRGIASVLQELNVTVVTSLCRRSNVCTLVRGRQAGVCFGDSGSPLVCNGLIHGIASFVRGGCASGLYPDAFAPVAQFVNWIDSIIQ

≈ marks a conversion by molar mass, not a printed value.

As for `CC(=O)O[C@H]1[C@H](O)C2=C(CC[C@@H]3C2(C)C[C@@H](OC(=O)CCCCCCCCCCCCCCCO)[C@H](OS(=O)(=O)O)C3(C)C)C2CC[C@H](C(C)CCC3(C(C)(C)O)CO3)C21C` (some centres unmarked), the ED50 stood at 1.4 µg/mL (≈ 1.59 µM).

The compound `CC(=O)O[C@H]1[C@H](O)C2=C(CC[C@@H]3C2(C)C[C@@H](OC(=O)CCCCCCCCCCCCCCCO)[C@H](OS(=O)(=O)O)C3(C)C)C2=CC[C@H](C(C)CCC3(C(C)(C)O)CO3)C21C` (some centres unmarked) returned an ED50 of 1.7 µg/mL (≈ 1.93 µM).

The record behind these values is patent US4871727A, “Anti-inflammatory and antidegenerative compounds isolated from L-681,512” (Merck & Co, Inc., priority 1987, dated 1989).
